From ChEMBL document CHEMBL1133013, “Structure-activity relationships and pharmacokinetic analysis for a series of potent, systemically available biphenylsulfonamide matrix metalloproteinase inhibitors” (J Med Chem, 2000)
One block for each compound: values may come before it.

The chains behind the UniProt entries cited, without tags or fusion partners. Where a name states a change or a piece, a line headed by the entry shows the natural chain unless it says otherwise.
UniProt P14780: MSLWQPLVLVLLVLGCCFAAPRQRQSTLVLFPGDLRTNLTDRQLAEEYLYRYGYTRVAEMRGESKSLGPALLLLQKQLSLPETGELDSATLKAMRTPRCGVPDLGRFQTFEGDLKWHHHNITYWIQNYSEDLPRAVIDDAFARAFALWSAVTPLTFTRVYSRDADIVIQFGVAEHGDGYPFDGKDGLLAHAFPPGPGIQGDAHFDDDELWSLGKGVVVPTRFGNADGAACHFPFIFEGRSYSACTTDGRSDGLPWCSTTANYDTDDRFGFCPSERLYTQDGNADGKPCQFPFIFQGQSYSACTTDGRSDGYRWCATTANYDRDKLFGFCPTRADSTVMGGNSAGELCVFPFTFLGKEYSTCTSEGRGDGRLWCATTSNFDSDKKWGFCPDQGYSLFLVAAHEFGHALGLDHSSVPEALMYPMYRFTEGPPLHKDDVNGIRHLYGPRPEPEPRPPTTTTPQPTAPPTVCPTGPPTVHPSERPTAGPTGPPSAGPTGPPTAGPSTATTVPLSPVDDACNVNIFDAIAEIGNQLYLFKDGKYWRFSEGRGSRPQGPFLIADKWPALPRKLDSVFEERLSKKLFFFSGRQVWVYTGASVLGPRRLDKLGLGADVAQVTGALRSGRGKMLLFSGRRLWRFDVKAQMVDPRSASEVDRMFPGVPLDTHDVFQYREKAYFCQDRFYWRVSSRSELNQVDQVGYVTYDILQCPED
UniProt P08253: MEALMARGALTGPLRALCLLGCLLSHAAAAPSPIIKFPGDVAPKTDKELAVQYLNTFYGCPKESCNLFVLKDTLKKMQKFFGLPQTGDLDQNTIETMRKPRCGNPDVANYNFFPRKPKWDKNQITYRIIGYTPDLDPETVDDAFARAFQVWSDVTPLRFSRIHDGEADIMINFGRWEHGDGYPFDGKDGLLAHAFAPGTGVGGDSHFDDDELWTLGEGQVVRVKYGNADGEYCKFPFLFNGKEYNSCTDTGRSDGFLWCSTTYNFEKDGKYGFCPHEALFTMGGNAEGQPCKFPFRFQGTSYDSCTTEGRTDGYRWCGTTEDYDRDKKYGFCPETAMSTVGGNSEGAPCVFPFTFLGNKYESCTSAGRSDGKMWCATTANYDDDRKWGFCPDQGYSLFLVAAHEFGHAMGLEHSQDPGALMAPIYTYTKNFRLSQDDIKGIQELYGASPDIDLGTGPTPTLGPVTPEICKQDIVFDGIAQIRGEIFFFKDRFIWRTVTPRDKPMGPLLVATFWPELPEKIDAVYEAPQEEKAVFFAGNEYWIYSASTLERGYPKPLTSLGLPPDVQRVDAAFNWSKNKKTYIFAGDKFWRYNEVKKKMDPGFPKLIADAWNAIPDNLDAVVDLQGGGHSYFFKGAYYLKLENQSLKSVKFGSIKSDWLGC

Columns and labels:
[1] = target: Collagenase 3 (Homo sapiens, UniProt P45452)
[2] = target: T1, Interstitial collagenase (Homo sapiens, UniProt P03956); assay: In vitro inhibition of human recombinant matrix metalloprotease-1 (MMP-1)
T1 sequence (P03956 whole entry): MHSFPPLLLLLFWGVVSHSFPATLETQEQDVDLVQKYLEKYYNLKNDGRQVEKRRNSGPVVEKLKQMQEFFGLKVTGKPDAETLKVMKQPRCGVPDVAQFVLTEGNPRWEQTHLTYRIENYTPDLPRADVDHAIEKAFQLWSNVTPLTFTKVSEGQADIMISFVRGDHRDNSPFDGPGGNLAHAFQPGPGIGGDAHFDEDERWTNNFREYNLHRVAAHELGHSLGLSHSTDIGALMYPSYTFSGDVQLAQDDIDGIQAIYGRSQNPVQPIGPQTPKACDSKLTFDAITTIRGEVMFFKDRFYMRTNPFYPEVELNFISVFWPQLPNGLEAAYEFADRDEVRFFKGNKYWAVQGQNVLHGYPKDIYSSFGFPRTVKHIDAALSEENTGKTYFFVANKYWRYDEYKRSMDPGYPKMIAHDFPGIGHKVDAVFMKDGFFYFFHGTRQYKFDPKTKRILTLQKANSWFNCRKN

[3] = target: T2, Matrilysin (Homo sapiens, UniProt P09237); assay: In vitro inhibition of matrix metalloprotease-7 (MMP-7)
T2 sequence (P09237 whole entry): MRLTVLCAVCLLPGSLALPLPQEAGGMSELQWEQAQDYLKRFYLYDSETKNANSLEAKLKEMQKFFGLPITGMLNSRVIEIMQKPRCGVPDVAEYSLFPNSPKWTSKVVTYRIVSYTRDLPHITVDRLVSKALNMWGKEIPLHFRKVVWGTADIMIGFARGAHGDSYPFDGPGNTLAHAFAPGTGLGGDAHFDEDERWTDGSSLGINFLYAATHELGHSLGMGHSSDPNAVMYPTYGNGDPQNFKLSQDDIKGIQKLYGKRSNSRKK
In short: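 Bacterially expressed catalytic domains, purified chromatographically. Run at pH 7.0: MMP-7 in 50 mM HEPES; MMP-2 in MOPS plus 10 μM ZnCl2. Both with 10 mM CaCl2, 1 mM DTNB, 0.1% Brij 35, 2% DMSO, 100 μM thioester peptide substrate, enzyme 2.5-50 nM. Thiol release read at A405 over 10 min. IC50 by sigmoid least-squares fit, replicate values averaged.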

[4] = target: Matrix metalloproteinase-9 (Homo sapiens, UniProt P14780); assay: In vitro inhibition of matrix metalloprotease-9 (MMP-9)
In short: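 Full-length enzymes from human cell-conditioned media. MMP-1 activated with trypsin, MMP-9 with MMP-3CD. pH 7.0, 50 mM HEPES, 10 mM CaCl2, 1 mM DTNB, 0.1% Brij 35, 2% DMSO, thioester peptide substrate (100 μM; MMP-9 50 μM), enzyme 2.5-50 nM. A405 followed 10 min. IC50 from sigmoid fit of % control activity, replicates averaged.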

[5] = target: 72 kDa type IV collagenase (Homo sapiens, UniProt P08253); assay: In vitro inhibition of matrix metalloprotease-2 (MMP-2)

Compound: CC(C)[C@H](NS(=O)(=O)c1ccc(-c2ccc(C#N)cc2)cc1)C(=O)NO
IC50 [1]: 0.58 µM

Compound: CC(C)[C@H](NS(=O)(=O)c1ccc(-c2ccc(N)cc2)cc1)C(=O)O
IC50 [2]: 26 µM

Compound: O=C(CCc1ccccc1)NCCCC[C@H](NS(=O)(=O)c1ccc(-c2ccc(Br)cc2)cc1)C(=O)O
IC50 [1]: 0.004 µM

Compound: CC(C)[C@H](NS(=O)(=O)c1ccc(-c2cccc(Br)c2)cc1)C(=O)O
IC50 [3]: 100 µM | IC50 [4]: 100 µM

Compound: O=C(O)[C@H](Cc1ccccc1)NS(=O)(=O)c1ccc(-c2ccc(Br)cc2)cc1
IC50 [2]: 56 µM

IC50 [2]: 0.05 µM
Compound: CC(C)[C@@H](NS(=O)(=O)c1ccc(Oc2ccccc2)cc1)C(=O)NO

Compound: CC(C)[C@@H](NS(=O)(=O)c1ccc(-c2ccc(C#N)cc2)cc1)C(=O)NO
IC50 [1]: 0.001 µM

Compound: CC(C)[C@H](NS(=O)(=O)c1ccc(-c2ccc(C(F)(F)F)cc2)cc1)C(=O)O
IC50 [5]: 0.013 µM
